Earlier results, collected in patent US9952300B2, “Dynamic contrast enhanced MRI method and agents for the assessment of the macromolecular transport within pathologic tissues” (BRACCO IMAGING S.P.A., priority 2012, dated 2018).

Tested on: A431 tumor xenograft
Settings: high doses such as 1 mg/mouse, Lee and Tannock 2010; cited from earlier work

Cetuximab: monoclonal antibody; target: epidermal growth factor receptor
tumor tissue from the vessels walls saturated by the mAb: 100 μm
